Experiments:
[1] = Physical stability at 37° C. in static conditions, visual inspection (EP 2.9.20); details: 1 mg/mL
[2] = Thioflavin T (ThT) fluorescence fibrillation test, latency time (lag time); format: physicochemical; details: alone

Structure (SMILES): CSCC[C@H](NC(=O)[C@H](CC(C)C)NC(=O)[C@H](Cc1c[nH]c2ccccc12)NC(=O)[C@H](CCC(N)=O)NC(=O)[C@@H](NC(=O)[C@H](Cc1ccccc1)NC(=O)[C@H](CC(=O)O)NC(=O)[C@H](CCC(N)=O)NC(=O)[C@H](C)NC(=O)[C@H](CCCN=C(N)N)NC(=O)[C@H](CCCN=C(N)N)NC(=O)[C@H](CO)NC(=O)[C@H](CC(=O)O)NC(=O)[C@H](CC(C)C)NC(=O)[C@H](Cc1ccc(O)cc1)NC(=O)[C@H](CCCCN)NC(=O)[C@H](CO)NC(=O)[C@H](Cc1ccc(O)cc1)NC(=O)[C@H](CC(=O)O)NC(=O)[C@H](CO)NC(=O)[C@@H](NC(=O)[C@H](Cc1ccccc1)NC(=O)[C@@H](NC(=O)CNC(=O)[C@H](CCC(N)=O)NC(=O)[C@H](CO)NC(=O)[C@@H](N)Cc1c[nH]cn1)[C@@H](C)O)[C@@H](C)O)C(C)C)C(=O)N[C@@H](CC(N)=O)C(=O)N[C@H](C(=O)O)[C@@H](C)O [glucagon]
- Physical stability of solution of glucagon at acidic pH [1]: 2 days
- Stability of glucagon solution at acidic pH under ThT measurement conditions [2]: stable for only a few minutes

From patent US11191812B2 (ADOCIA, priority 2017, dated 2021)
